Literature values as cited in article PMC6278313.

Tested on: human COX-2
Conditions: human whole blood; COX-2 over COX-1; cited from earlier work

For CS(=O)(=O)c1ccc(-c2nc(Cl)cc(NCc3cccs3)n2)cc1 [Compound 25, 6-Chloro-2-(4-(methylsulfonyl)phenyl)-N-(thiophen-2-ylmethyl)pyrimidin-4-amine], the “Selectivity vs. COX-1” value is given as >81,300.
